Antibody variant affinities, Ab-14 heavy chain, assay B

Data: MIT Lincoln Laboratory AlphaSeq set, Li et al. 2023, doi:10.1038/s41467-023-39022-2, as distributed in FLAb.

All variants were tested on one target, the spike HR2 peptide PDVDLGDISGINAS (SARS-CoV-2).

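The starting antibody came from a phage panning campaign against this peptide. The variants were designed computationally from a first round of random CDR variants and then made and measured. Several design methods are mixed in this list. The scFvs were displayed on barcoded MATa yeast, the peptide on MATalpha yeast. Pairs that bind mate more often; barcode pairs of the diploids are counted by sequencing. Scores were corrected for input abundance and mapped to Kd with protein pairs of known affinity run in the same pool. There are six technical replicates.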

Ab-14 is the parent antibody, in scFv form: VH, then a (GGGGS)3 linker, then VL. The light chain is unchanged in all variants.
VH: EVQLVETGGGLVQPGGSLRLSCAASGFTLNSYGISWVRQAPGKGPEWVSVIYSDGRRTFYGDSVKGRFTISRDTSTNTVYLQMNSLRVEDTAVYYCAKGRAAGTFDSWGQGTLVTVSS
VL: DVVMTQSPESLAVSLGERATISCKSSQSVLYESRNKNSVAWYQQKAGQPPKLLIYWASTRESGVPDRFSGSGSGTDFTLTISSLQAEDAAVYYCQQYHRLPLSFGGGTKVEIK

The parent's heavy chain CDRs are GFTLNSYGIS, VIYSDGRRTFYGDSVK, GRAAGTFDS; each variant's own CDRs replace them letter for letter.
This list holds designs with more than six substitutions.
Values are apparent Kd, the geometric mean of the replicates that gave a signal; lower means stronger binding.
A pair that was not seen in any replicate is written "not detected"; this usually means weak binding, but a binder can also be missed.
The authors averaged sequences with at least three values out of six and counted those with two or fewer as poor binders.
Of ten entries with the parent sequence, four were seen in most replicates (averages 2.2 nM to 240 nM), three in one and three in none, so single entries are noisy.
A sequence measured in both rounds can read differently, since the two assays cover different ranges.
Background: pairings of all heavy chain designs with three empty control strains gave a value in 1% of cases (median 120 nM, 5th percentile 7.0 nM). Values in that range, when seen in few replicates, are hard to tell from nonspecific mating. The control count says in how many pairings with the empty strains this scFv gave a signal.

CDR-H1	CDR-H2	CDR-H3	Kd	seen in	empty controls
GFNLLEYGIS	VIYADGKRTMYTNTVK	GMINDGVMA	not detected	0/6	1/18
GFSLDEYGIS	VIYADGRRTFYADSVK	GNVAGTFDV	120 pM	6/6	0/18
GFDLNEYGIS	VIYADGRRTAYIDSVK	GHVAGTFDS	280 pM	6/6	0/18
GYDLVEYGIS	VIYADGQRTMYADTVK	GHHGGIFFM	not detected	0/6	0/18
GFDLDEYGIS	VIYADGQRFAYAQEFK	GEAGGAFDL	not detected	0/6	0/18
GQDINEYGIS	VIYADGVRTQYSDSVK	SGTDVALTV	not detected	0/6	0/18
GFDLDEYGIS	VIYADGRRTAYADSVK	GENAGTFDI	660 pM	6/6	0/18
GFALNEYGIS	VIYADGSRSAYTDSVK	GVHNGDVNI	not detected	0/6	0/18
GNDINEYGIS	VIYADGMRTAYLNDVK	GQMGGLFIM	not detected	0/6	0/18
GFDLDEYGIS	VIYADGQRTAYADSVK	GQTAGTFDV	940 pM	6/6	0/18
GFSLEEYGIS	VIYADGKRDVYADSVK	GHISGWFDI	330 nM	1/6	0/18
GFDLNDYGIS	VIYADGRRTFYADSVK	GEMAGTFDI	1.2 nM	6/6	0/18
GFDLDEYGIS	VIYADGKRTAYAESVK	GENAGTFDV	430 pM	6/6	0/18
GFDLNEYGIS	VIYADGMRTYYADDVK	GSNAGTFDV	180 pM	6/6	1/18
GFDLNEYGIS	VIYADGRRSFYADSVK	GQLAGTFDK	440 pM	6/6	0/18
GFDLDEYGIS	VIYADGQRTAYSDSVK	GETAGTFDV	390 pM	6/6	0/18
GFDLEEYGIS	VIYADGMRTAYADSVK	GEVAGTFDL	430 pM	6/6	0/18
GFDLNEYGIS	VIYADGMRTAYTDSVK	GNQAGTFDL	210 pM	6/6	0/18
GFDLDEYGIS	VIYADGMRTVYADSVK	GENAGTFDI	440 pM	6/6	0/18
GDSLDEYGIS	VIYADGQRSFYADSVK	GEHDGLFFQ	not detected	0/6	0/18
GFDLNEYGIS	VIYADGRRTAYLDSVK	GQLAGTFDT	400 pM	6/6	1/18
GFDLNEYGIS	VIYADGVRTAYADSVK	GNVAGTFDL	130 pM	6/6	0/18
GFDLNEYGIS	VIYADGRRTFYADSVK	GEAAGTFFM	68 nM	5/6	1/18
GFDLNEYGIS	VIYADGMRSYYADSVK	GNVAGTFDT	440 pM	6/6	0/18
GFDLNEYGIS	VIYADGTRTAYANTVK	GKYVGVFVD	not detected	0/6	0/18
GFDIDEYGIS	VIYADGTRTAVDPSFK	GQMAGFFDE	not detected	0/6	1/18
GFDLDEYGIS	VIYADGMRTAYADDVK	GQNAGTFDI	410 pM	6/6	0/18
GFDLDEYGIS	VIYADGMRTAYVDSVK	GNVAGTFDM	230 pM	6/6	0/18
GFDLEDYGIS	VIYADGQRTAYADSVK	GQNAGTFDV	1.0 nM	6/6	0/18
GEDLGEYGIS	VIYADGVRFSYIDSVK	GQSTGFLDV	not detected	0/6	0/18
GFDLNEYGIS	VIYADGMRTSYADSVK	GNVAGTFDQ	270 pM	6/6	0/18
GFNLNEYGIS	VIYADGRRTFYADSVK	GENAGTFDI	160 pM	6/6	2/18
GFDLDEYGIS	VIYADGQRTAYTDSVK	GEVAGTFDV	23 nM	6/6	0/18
GFDLNEYGIS	VIYADGRRTAYSDNVK	GEVAGTFDV	700 pM	6/6	0/18
GFDLDEYGIS	VIYADGQRTAYSDSVK	GNVAGTFDI	76 pM	1/6	0/18
GDDLNSYGIS	VIYSDGRRTFYSDSWK	NRAAGTVSS	not detected	0/6	0/18
GFDLDEYGIS	VIYADGMRTAYADSVK	GNVAGTFDT	680 pM	6/6	0/18
GFDLDEYGIS	VIYADGQRTAYADDVK	GNEAGTFDV	1.6 nM	6/6	0/18
GFDLNEYGIS	VIYADGKRTAYADDVK	GTNAGTFDI	1.6 nM	2/6	0/18
GFDIEEYGIS	VIYADGMRTVYSDSFK	SGRTVNIDL	not detected	0/6	0/18
GFDLNEYGIS	VIYADGMRTAYIDSVK	GSNAGTFDV	220 pM	6/6	1/18
GFDLNEYGIS	VIYADGVRTAYADSVK	GNNAGTFDL	200 pM	6/6	0/18
GFDLDEYGIS	VIYADGQRTAYADSVK	GNVAGTFDM	430 pM	6/6	0/18
GFDLNEYGIS	VIYADGMRTYYSDSVK	GNVAGTFDI	310 pM	6/6	0/18
GFSLDEYGIS	VIYADGRRTFYADSVK	GNVAGTFDT	400 pM	6/6	0/18
GFDLNEYGIS	VIYADGVRTFYADSVK	GESAGTFDQ	760 pM	6/6	0/18
GFDLNEYGIS	VIYADGSRTAYSDSVK	GNVAGTFDT	120 pM	6/6	0/18
GFDLNEYGIS	VIYADGSRTAYADDVK	GNVAGTFDI	500 pM	6/6	0/18
GQDINEYGIS	VIYADGMRKAYVQNVK	GENTSSVQI	not detected	0/6	0/18
GFALNEYGIS	VIYADGFRRAYQDKVK	GVNVGEFSV	not detected	0/6	0/18
GFNISEYGIS	VIYADGMRSNYADSVK	GHKGNFFID	not detected	0/6	0/18
GFDLESYGIS	VIYADGMRVSYTNNVK	GQNVMISTG	290 nM	1/6	0/18
GFDLESYGIS	VIYADGKRTFYSDSVK	GENAGTFDI	380 pM	6/6	0/18
GFDLDEYGIS	VIYADGKRTAYADSVK	GNLAGTFDV	320 pM	6/6	0/18
GFDLNEYGIS	VIYADGMRTAYTDSVK	GKNAGTFDV	630 pM	6/6	0/18
GEDLNEYGVS	VIYADGIRSTYADKFK	GKHGAAFFV	not detected	0/6	1/18
GFDIEEYGIS	VIYADGVRMMYASNFK	GKIAGTFLL	49 nM	2/6	0/18
GFGLDEYGIS	VIYADGVRENYTDDVK	GGSWVVSLT	not detected	0/6	0/18
GFELQEYGIS	VIYADGARTAYSDNVK	GDAVGIFHV	not detected	0/6	0/18
GFDLDEYGIS	VIYADGMRTAYANSVK	GNQAGTFDV	570 pM	6/6	0/18
GFDLNEYGIS	VIYADGMRTFYTDSVK	GNVAGTFDL	470 pM	6/6	0/18
GFDLDEYGIS	VIYADGMRTAYADDVK	GNTAGTFDI	960 pM	6/6	0/18
GFDLNEYGIS	VIYADGVRTAYADSVK	GGNAGTFDV	4.5 nM	6/6	1/18
GFDLDEYGIS	VIYADGQRTAYTDSVK	GNNAGTFDV	79 pM	6/6	0/18
GFGLDEYGIS	VIYADGKRTFYADSVK	GENAGTFLM	6.5 nM	6/6	0/18
GFSLNEYGIS	VIYADGKSMHYADSVK	GLESGFFDI	not detected	0/6	0/18
GFNLNEYGIS	VIYADGMRVRYANNFK	GYLNVTLMV	not detected	0/6	0/18
GFHLDEFGIS	VIYADGLRMHYANSVK	GEMAGTFTT	24 nM	2/6	0/18
GFDLNEYGIS	VIYADGRRTFYADSVK	GENAGFFDV	64 nM	2/6	0/18

Excerpt, the first 7 entries:

{"CDR-H1": "GFNLLEYGIS", "CDR-H2": "VIYADGKRTMYTNTVK", "CDR-H3": "GMINDGVMA", "Kd": "not detected", "seen in": "0/6", "empty controls": "1/18"}
{"CDR-H1": "GFSLDEYGIS", "CDR-H2": "VIYADGRRTFYADSVK", "CDR-H3": "GNVAGTFDV", "Kd": "120 pM", "seen in": "6/6", "empty controls": "0/18"}
{"CDR-H1": "GFDLNEYGIS", "CDR-H2": "VIYADGRRTAYIDSVK", "CDR-H3": "GHVAGTFDS", "Kd": "280 pM", "seen in": "6/6", "empty controls": "0/18"}
{"CDR-H1": "GYDLVEYGIS", "CDR-H2": "VIYADGQRTMYADTVK", "CDR-H3": "GHHGGIFFM", "Kd": "not detected", "seen in": "0/6", "empty controls": "0/18"}
{"CDR-H1": "GFDLDEYGIS", "CDR-H2": "VIYADGQRFAYAQEFK", "CDR-H3": "GEAGGAFDL", "Kd": "not detected", "seen in": "0/6", "empty controls": "0/18"}
{"CDR-H1": "GQDINEYGIS", "CDR-H2": "VIYADGVRTQYSDSVK", "CDR-H3": "SGTDVALTV", "Kd": "not detected", "seen in": "0/6", "empty controls": "0/18"}
{"CDR-H1": "GFDLDEYGIS", "CDR-H2": "VIYADGRRTAYADSVK", "CDR-H3": "GENAGTFDI", "Kd": "660 pM", "seen in": "6/6", "empty controls": "0/18"}